## Antibody variant affinities, Ab-91 heavy chain, assay 2

Reference: Engelhart et al. 2022, doi:10.1038/s41597-022-01779-4. File: FLAb, binding data.

Target peptide (SARS-CoV-2 spike, HR2 region): PDVDLGDISGINAS

Ab-91 is the parent antibody, in scFv form: VL, then a (GGGGS)3 linker, then VH. The light chain is unchanged in all variants.
VL: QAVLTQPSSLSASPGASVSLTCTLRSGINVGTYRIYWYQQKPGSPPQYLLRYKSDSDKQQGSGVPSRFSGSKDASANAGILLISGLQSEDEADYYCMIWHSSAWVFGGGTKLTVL
VH: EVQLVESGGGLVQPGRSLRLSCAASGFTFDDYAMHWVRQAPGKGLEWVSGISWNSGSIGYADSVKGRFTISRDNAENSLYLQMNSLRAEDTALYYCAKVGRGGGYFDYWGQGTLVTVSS

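The starting antibody came from a phage panning campaign against this peptide. Variants in AAYL51 differ from the parent at up to three CDR positions; double and triple changes were sampled at random. In AlphaSeq, yeast of one mating type display the scFv and yeast of the other type display the target. Mating (16 h, 30 °C) was followed by selection of diploids and sequencing of their barcodes. Each replicate has its own calibration line, from reference interactions of the BCL2 family. The assay was run in three technical replicates.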

Positions count from residue 1 of the parent VH; G26M puts M in place of G. Each Kd is an estimate from the mating assay, the geometric mean of the replicates in which the pair was seen; lower is stronger. "nd" means that the variant was in the library but no mating with the target was seen in any replicate; the authors take this as a sign of poor binding, and no number exists. Three control strains display no target. For library AAYL51, 21% of the pairings with them gave a signal, with a median of 34 µM and one signal in twenty below 1.8 µM, so weak values seen in few replicates may be background. Also given: how often the same scFv was detected with the empty control strains.

Variant G26M/F29A/Y108K showed 11 µM (1 of 3 replicates; controls 3 of 9).
Variant I51Y/S55N/D62V showed 150 µM (1 of 3 replicates; controls 3 of 9).
Variant M34S/S57Q/D62C showed nd (0 of 3 replicates; controls 2 of 9).
Variant G26R/F29Y/G56K showed nd (0 of 3 replicates; controls 0 of 9).
Variant G50H/W53E/S57D showed 60 µM (3 of 3 replicates; controls 5 of 9).
Variant T28E/H35I/Y108S showed 15 µM (2 of 3 replicates; controls 1 of 9).
Variant S57H/I58Y/R101C showed 35 µM (1 of 3 replicates; controls 1 of 9).
Variant V64Y/F106A/Y108I showed 1.2 µM (2 of 3 replicates; controls 0 of 9).
Variant T28M/V64G/F106I showed 86 µM (1 of 3 replicates; controls 0 of 9).
Variant I58P/G59P/Y105P showed 360 µM (2 of 3 replicates; controls 5 of 9).
Variant S55C/R101H/F106I showed 300 µM (1 of 3 replicates; controls 3 of 9).
Variant D31A/D62Y/D107V showed 1.8 µM (3 of 3 replicates; controls 0 of 9).
Variant D30N/N54R/I58P showed 48 µM (3 of 3 replicates; controls 2 of 9).
Variant Y32Q/A33D/N54P showed nd (0 of 3 replicates; controls 1 of 9).
Variant G56A/G100H/Y105H showed 40 nM (3 of 3 replicates; controls 0 of 9).
Variant V64P/G102K/Y105M showed 11 µM (1 of 3 replicates; controls 6 of 9).
Variant W53D/A61N/G102P showed nd (0 of 3 replicates; controls 0 of 9).
Variant F27L/S52T/D62F showed 120 µM (1 of 3 replicates; controls 6 of 9).
Variant G26N/K65I/R101N showed nd (0 of 3 replicates; controls 0 of 9).
Variant T28L/W53V/G102I showed nd (0 of 3 replicates; controls 2 of 9).
Variant F29L/M34A/F106D showed 520 µM (1 of 3 replicates; controls 2 of 9).
Variant I51C/V99E/G100A showed nd (0 of 3 replicates; controls 0 of 9).
Variant G26D/H35G/K65G showed nd (0 of 3 replicates; controls 0 of 9).
Variant S63Q/V99C/Y105D showed nd (0 of 3 replicates; controls 0 of 9).
Variant A33M/S57A/D107I showed 40 µM (1 of 3 replicates; controls 3 of 9).
Variant I51F/S63K/K65D showed 640 µM (1 of 3 replicates; controls 2 of 9).
Variant F27A/G59P/Y60L showed 130 µM (2 of 3 replicates; controls 6 of 9).
Variant H35D/N54Q/F106R showed nd (0 of 3 replicates; controls 1 of 9).
Variant G26I/Y32S/R101L showed 110 µM (2 of 3 replicates; controls 1 of 9).
Variant F29M/S55K/F106K showed nd (0 of 3 replicates; controls 0 of 9).
Variant D31I/I58C/F106N showed 14 µM (3 of 3 replicates; controls 4 of 9).
Variant F27W/G59H/G102K showed 410 µM (3 of 3 replicates; controls 8 of 9).
Variant A33Y/G56P/K65L showed 120 µM (3 of 3 replicates; controls 3 of 9).
Variant G50E/I58A/Y60F showed 2.5 µM (1 of 3 replicates; controls 1 of 9).
Variant A33C/G50D/G59Y showed 89 µM (3 of 3 replicates; controls 3 of 9).
Variant F27D/W53N/S63C showed nd (0 of 3 replicates; controls 0 of 9).
Variant Y32E/W53L/G100I showed 510 µM (3 of 3 replicates; controls 6 of 9).
Variant G26E/G59T/V64P showed nd (0 of 3 replicates; controls 0 of 9).
Variant H35D/S55G showed 24 nM (3 of 3 replicates; controls 3 of 9).
Variant H35M/S55R/G59I showed nd (0 of 3 replicates; controls 0 of 9).
Variant D31E/Y32V/A33M showed 13 µM (1 of 3 replicates; controls 0 of 9).
Variant Y60T/R101P showed 99 nM (3 of 3 replicates; controls 3 of 9).
Variant A33N/S63A/V99C showed 160 µM (3 of 3 replicates; controls 6 of 9).
Variant H35C/G56R/G104I showed 110 µM (1 of 3 replicates; controls 3 of 9).
Variant D30G/S57Y/S63E showed nd (0 of 3 replicates; controls 0 of 9).
Variant T28P/W53S/Y108D showed 1.8 µM (1 of 3 replicates; controls 2 of 9).
Variant S55H/G56D/G103S showed 2.3 µM (3 of 3 replicates; controls 0 of 9).
Variant A33I/H35N/W53E showed 38 µM (1 of 3 replicates; controls 2 of 9).
Variant W53I/A61W/G103Q showed 39 µM (1 of 3 replicates; controls 2 of 9).
Variant D30N/G104L/F106C showed nd (0 of 3 replicates; controls 0 of 9).

The first 4 variants above that were never detected:

{"changes": "M34S/S57Q/D62C", "apparent Kd": "nd", "replicates with signal": "0 of 3", "signal with controls": "2 of 9"}
{"changes": "G26R/F29Y/G56K", "apparent Kd": "nd", "replicates with signal": "0 of 3", "signal with controls": "0 of 9"}
{"changes": "Y32Q/A33D/N54P", "apparent Kd": "nd", "replicates with signal": "0 of 3", "signal with controls": "1 of 9"}
{"changes": "W53D/A61N/G102P", "apparent Kd": "nd", "replicates with signal": "0 of 3", "signal with controls": "0 of 9"}